Read-outs that look alike come from different tables or passages of the source.
Experimental: Finally, if it is judged to be safe at S8, S12, or S15, overall safety is evaluated. Here, the sum of respective reciprocals of the previously determined inhalation safety coefficient, percutaneous safety coefficient, and oral safety coefficient is determined, and the reciprocal of thus determined value is defined as an overall safety coefficient (S16).
inhalation safety coefficient=inhalation non-influential amount [mg/kg/day]/estimated exposure amount in inhalation [mg/kg/day]
percutaneous safety coefficient=percutaneous non-influential amount [mg/kg/day]/estimated percutaneous exposure amount [mg/kg/day]
oral safety coefficient=oral non-influential amount [mg/kg/day]/estimated oral exposure amount [mg/kg/day]

With `CC(C)=CC1[C@@H](C(=O)OCN2C(=O)C3=C(CCCC3)C2=O)C1(C)C` (stereo in doubt) [d-tetramethrin] the “INHALATION (WINDOW CLOSED) safety coefficient” value (ADULT) was 3,190, the “INHALATION (WINDOW OPEN) safety coefficient” value (ADULT) was 15,900 and the PERCUTANEOUS safety coefficient (ADULT) was 2,280,000. For the same molecule, the “TOTAL (WINDOW CLOSED) safety coefficient” value (ADULT) was 3,180, the “TOTAL (WINDOW OPEN) safety coefficient” value (ADULT) was 15,800 and the “INHALATION (WINDOW CLOSED) safety coefficient” value (INFANT) was 2,880. The “INHALATION (WINDOW OPEN) safety coefficient” value (INFANT) was 14,400, the ORAL safety coefficient (INFANT) was 100,000 and the PERCUTANEOUS safety coefficient (INFANT) was 465,000. The “TOTAL (WINDOW CLOSED) safety coefficient” value (INFANT) was 2,780 and the “TOTAL (WINDOW OPEN) safety coefficient” value (INFANT) was 12,200.

From patent US6810371B1 (priority 1906, dated 2004)
